The numbers were not newly measured in publication PMC7766225, “Structure-Based Discovery and Bioactivity Evaluation of Novel Aurora-A Kinase Inhibitors as Anticancer Agents via Docking-Based Comparative Intermolecular Contacts Analysis (dbCICA)” (Molecules, 2020), which cites them from elsewhere.

The structures appear in SMILES notation.

This data set addresses T1, Aurora-A kinase (Homo sapiens, UniProt O14965).
T1 sequence (O14965 1-403): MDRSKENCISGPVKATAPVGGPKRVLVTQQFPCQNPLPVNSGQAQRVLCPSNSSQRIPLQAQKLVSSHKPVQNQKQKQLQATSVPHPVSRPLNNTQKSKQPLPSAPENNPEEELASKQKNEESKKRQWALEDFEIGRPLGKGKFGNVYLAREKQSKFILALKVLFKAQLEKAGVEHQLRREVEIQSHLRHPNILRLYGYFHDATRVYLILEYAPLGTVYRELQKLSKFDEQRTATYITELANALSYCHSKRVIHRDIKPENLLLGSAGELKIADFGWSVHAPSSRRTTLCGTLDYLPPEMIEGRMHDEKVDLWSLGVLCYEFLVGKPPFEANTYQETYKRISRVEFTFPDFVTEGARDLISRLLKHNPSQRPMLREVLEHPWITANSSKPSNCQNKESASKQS
Details: purchased Invitrogen (Carlsbad, CA, USA). The conditions noted are these: Table S1, ChEMBL; ref Bebbington, et al., 2009; cited from earlier work.

For the compound `Cc1cc(Nc2nc(Sc3cccc(Cl)c3)nc3ccccc23)n[nH]1` [Compound 35], the Ki was 4 nM.

As to `Cc1cc(Nc2nc(Sc3ccc(Cl)cc3)nc3ccccc23)n[nH]1` [Compound 36], the inhibitory constant (Ki) was 6 nM.

As for `Cc1cc(Nc2nc(Sc3ccccc3)nc3ccccc23)n[nH]1` [Compound 33], the Ki was 20 nM.

`Cc1cc(Nc2nc(Sc3cccc(Cl)c3Cl)nc3ccccc23)n[nH]1` [Compound 37]: the Ki was 3 nM.

For the compound `Cc1cc(Nc2nc(Sc3ccc(Cl)c(Cl)c3)nc3ccccc23)n[nH]1` [Compound 40], the Ki was 2 nM.

Regarding `COc1ccc(Sc2nc(Nc3cc(C)[nH]n3)c3ccccc3n2)cc1OC` [Compound 43], the Ki was 17 nM.

`Cc1cc(Nc2nc(Oc3ccccc3)nc3ccccc23)n[nH]1` [Compound 32]: the inhibitory constant (Ki) is 36 nM.

In the case of `Cc1cc(Nc2nc(Sc3ccc(NC(=O)OC(C)(C)C)cc3)nc3ccccc23)n[nH]1` [Compound 46], the Ki is 9 nM.

Turning to `Cc1cc(Nc2nc(Sc3ccccc3Cl)nc3ccccc23)n[nH]1` [Compound 34], the Ki was 5 nM.

With `Cc1cc(Nc2nc(N(C)c3ccccc3)nc3ccccc23)n[nH]1` [Compound 31], the Ki is 17 nM.

On to `Cc1cc(Nc2nc(Sc3ccc4ccccc4c3)nc3ccccc23)n[nH]1` [Compound 44], for which the Ki is 1 nM.

As to `Cc1cc(Nc2nc(Sc3ccc(Cl)cc3Cl)nc3ccccc23)n[nH]1` [Compound 38], the Ki was 2 nM.

On to `COc1ccccc1Sc1nc(Nc2cc(C)[nH]n2)c2ccccc2n1` [Compound 41], for which the Ki was 24 nM.

As for `Cc1cc(Nc2nc(Nc3ccccc3)nc3ccccc23)n[nH]1` [Compound 30], the Ki is 24 nM.

Turning to `CCC(=O)Nc1ccc(Sc2nc(Nc3cc(C)[nH]n3)c3ccccc3n2)cc1` [Compound 47], the Ki is 1 nM.

Turning to `COc1ccc(Sc2nc(Nc3cc(C)[nH]n3)c3ccccc3n2)cc1` [Compound 42], the Ki was 9 nM.

Turning to `CC(=O)Nc1ccc(Sc2nc(Nc3cc[nH]n3)c3ccccc3n2)cc1` [Compound 48], the Ki was 24 nM.

With `Cc1cc(Nc2nc(Sc3c(Cl)cccc3Cl)nc3ccccc23)n[nH]1` [Compound 39], the Ki is 5 nM.

By Ki is commonly meant the equilibrium dissociation constant of an inhibitor or competing ligand from its target.
